Broadly, the pEC50 is −log10 of the EC50, conventionally taken in molar units.

Chains of the proteins cited; added tags and fusions are not shown.
UniProt P11103, whole entry: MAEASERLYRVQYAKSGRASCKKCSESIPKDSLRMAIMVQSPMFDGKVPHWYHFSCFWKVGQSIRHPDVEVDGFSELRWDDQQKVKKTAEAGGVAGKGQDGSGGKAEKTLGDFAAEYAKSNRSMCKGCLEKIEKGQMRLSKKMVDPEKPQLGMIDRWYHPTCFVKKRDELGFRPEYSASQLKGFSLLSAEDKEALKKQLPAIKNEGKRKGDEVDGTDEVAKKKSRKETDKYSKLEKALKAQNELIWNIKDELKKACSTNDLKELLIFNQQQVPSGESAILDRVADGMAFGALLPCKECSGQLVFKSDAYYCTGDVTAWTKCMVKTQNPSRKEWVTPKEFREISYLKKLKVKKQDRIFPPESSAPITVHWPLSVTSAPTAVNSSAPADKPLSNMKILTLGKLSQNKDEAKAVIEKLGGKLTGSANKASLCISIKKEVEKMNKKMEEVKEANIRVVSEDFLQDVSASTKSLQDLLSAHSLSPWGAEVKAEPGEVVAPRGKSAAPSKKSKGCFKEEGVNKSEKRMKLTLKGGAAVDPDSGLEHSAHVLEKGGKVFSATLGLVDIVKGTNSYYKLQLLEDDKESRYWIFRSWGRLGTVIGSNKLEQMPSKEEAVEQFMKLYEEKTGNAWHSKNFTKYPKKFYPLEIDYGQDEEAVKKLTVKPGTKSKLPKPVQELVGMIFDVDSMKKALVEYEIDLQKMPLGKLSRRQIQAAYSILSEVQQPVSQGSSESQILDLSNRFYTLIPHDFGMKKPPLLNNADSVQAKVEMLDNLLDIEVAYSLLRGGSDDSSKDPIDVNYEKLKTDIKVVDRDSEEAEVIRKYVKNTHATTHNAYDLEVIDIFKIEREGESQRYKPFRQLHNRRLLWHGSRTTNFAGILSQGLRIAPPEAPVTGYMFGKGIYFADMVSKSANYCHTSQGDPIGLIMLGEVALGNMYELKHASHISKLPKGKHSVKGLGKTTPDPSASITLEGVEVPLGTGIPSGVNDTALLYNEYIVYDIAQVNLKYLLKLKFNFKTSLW

The values below come from patent publication US20100121049A1, “INDENOISOQUINOLINONE ANALOGS AND METHODS OF USE THEREOF” (INOTEK PHARMACEUTICALS CORPORATION, priority 2007, published 2010).

pEC50: −log10 of the molar value.

The experiment has as its target PARP (Mus musculus, UniProt P11103). Nature of the experiment: PARP activity in cultured macrophages, whole-cell based assay (3H-NAD+ incorporation after hydrogen peroxide). Conditions: read-out: EC50 value; murine RAW macrophages; compound 1 hour prior to hydrogen peroxide (0.5 mM) for 25 minutes; PARP activity by 3H-NAD+. Here is the method:
Effect of Indenoisoquinolinone Analogs on PARP Activity in Cultured Macrophages, Using a Whole-Cell Based Assay
The murine RAW macrophages (ATCC, American Type Culture Collection, Manassas, Va.) were grown in RPMI […] (Invitrogen Life Technologies; Carlsbad, Calif.) medium supplemented with 10% heat-inactivated FBS, 2 mM L-glutamine, and 100 U/ml of penicillin and streptomycin. Cells, between passages 5 and 15, were seeded at a density of 250,000 cells/well in 12 well plates and allowed to grow 48 hours before use. Growth medium was changed on the day of use. Cells were treated with an Indenoisoquinolinone Analog diluted in a growth medium supplemented with 10% fetal bovine serum (FBS) for 1 hour prior to the addition of hydrogen peroxide (0.5 mM) for a further 25 minutes. […] The pellets were then solubilized in 250 μl of NaOH (0.1 M) containing 2% SDS overnight at 37° C. and the PARP activity was then determined by measuring the radioactivity incorporated using a Wallac scintillation counter. The solubilized protein (250 μl) was mixed with 5 ml of scintillation fluid (ScintiSafe Plus, Fisher Scientific) before being counted for 3 minutes. EC50 values were determined from a dose-response curve.

Turning to `CN(Cc1ccc2c(c1)Cc1c-2[nH]c(=O)c2ccccc12)C(=O)CCN1CCOCC1`, the negative-log EC50 (pEC50) was less than 7.30.

For the compound `O=c1[nH]c2c(c3ccccc13)Cc1cc(CN3CCN(CC4CCCO4)CC3)ccc1-2` (centres unmarked), the pEC50 was 7.12.
